This is a sample that favours compounds with a hit; in the whole collection about 16% have one here.
TDP1 inh: inhibitors of human tyrosyl-DNA phosphodiesterase TDP1; Q9NUW8; recombinant TDP1, AlphaScreen DNA substrate cleavage; Potency, µM (highest dose often 130 µM), for the others: top-dose activity change, negative = inhibition, hits mostly inhibitors; 0.28% of 350,000 active; AID 485290; also: potency is read from the fitted curve at half-maximal effect; % is scaled to controls: 0 for no effect and ±100 for the full control effect; nearly all actives have a fitted effect of over 40% in size
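Tdp1 1 nM final; 15 min RT w/ cpd; substrate 15 nM, 5 min; beads 10 ug/ml, 10 min; AlphaScreen read. Neg ctrl: no enzyme.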
DT40 TDP1 no CPT: qHTS for Inhibitors of human tyrosyl-DNA phosphodiesterase 1 (TDP1): qHTS in cells in absence of CPT. Potency, µM (series often up to 46.2 µM), for inactives: at the top dose activity change, negative = growth inhibition, actives largely listed as inhibitors. DT40 Tdp1-/- hTDP1 cells, no CPT, ATP luminescence, 48 h. 15% of 420,000 active; also: potency is read from the fitted curve at half-maximal effect; % is scaled to controls: 0 for no effect and ±100 for the full control effect; nearly all actives have a fitted effect of over 55% in size
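DT40 Tdp1-/-;hTDP1 cells, no CPT (DMSO vehicle only), 400 cells/well; compounds pin-transferred; ≥48 hr, 37 °C; CellTiter-Glo 30 min RT dark, luminescence read.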
miR-21 reporter: raises the signal of a miR-21 reporter; HeLa miR-21 FLuc reporter, luciferase, 48 h; Potency, µM (top dose mostly 38.3 µM), for inactives: at the highest dose reporter change, positive = more light; AID 2288; 340,000 tested, under 10 active; active = well fitted rising curve with a large enough effect; inconclusive = small, poorly fitted or top-dose-only effect; inactive = no such curve, though single readings can be large or run the other way;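 note: % of control where 0% means no effect; miR-21 action dims this reporter so a rising signal means less miR-21 action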
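HeLa cells endogenously expressing miR-21, stably carrying CMV-driven firefly luciferase with a downstream miR-21 binding site, 2000 cells/well. Titrations up to approximately 40 uM, 48 hours; luciferase luminescence read.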
TDP1 cell CPT: growth inhibition of DT40 Tdp1-/-;hTDP1 cells with camptothecin (screen for TDP1 inhibitors) | chicken DT40 Tdp1-/-;hTDP1 cells + 20 nM CPT, ATP luminescence, 48 h | Potency, µM (titrated, usually from 46.2 µM), for inactives: at the top dose activity change, negative = growth inhibition, hits mostly inhibitors | 12% of 420,000 active | AID 686979; also: potency is read from the fitted curve at half-maximal effect; % is scaled to controls: 0 for no effect and ±100 for the full control effect; nearly all actives have a fitted effect of over 55% in size
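Chicken DT40 Tdp1-/- cells complemented with human TDP1, 400 cells/well, exposed to compounds plus 20 nM camptothecin for at least 48 h at 37 C; viability read as ATP content by CellTiter-Glo luminescence.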
uPA generation: blocks generation of uPA at the cell surface | Potency, µM (highest dose often 38.3 µM), for inactives: at the top dose activity change, negative = inhibition, actives largely listed as inhibitors | 0.31% of 330,000 active | cell surface uPA generation assay, qHTS; active = well fitted inhibition curve with a large enough effect; inconclusive = small, poorly fitted or top-dose-only effect; inactive = no such curve, though single readings can be large or run the other way; tested in mouse RAW 264.7 cells; also: potency is read from the fitted curve at half-maximal effect; % is scaled to controls: 0 for no effect and ±100 for the full control effect; nearly all actives have a fitted effect of over 55% in size
The depositor's hits bear a star; ? = inconclusive; . = not tested or not shown; [ ] = dose if it differs, or a comment. Unless noted, calls follow the shape of the dose curve; as a rule, active = well fitted curve in the direction sought with a large enough effect; inconclusive = small, poorly fitted or top-dose-only effect, or another doubt; inactive = no such curve, though single readings can be large; an effect the other way counts as inactive or inconclusive.

SMILES	TDP1 inh	DT40 TDP1 no CPT	miR-21 reporter	TDP1 cell CPT	uPA generation
Cc1noc(C)c1S(=O)(=O)N(C)C[C@H]1OCCCC[C@@H](C)Oc2ccc(NS(=O)(=O)c3cn(C)cn3)cc2C(=O)N([C@H](C)CO)C[C@@H]1C	.	-14%	.	-2%	.
CSCc1cccc(C(=O)OC(C)C(=O)Nc2c(C)n(C)n(-c3ccccc3)c2=O)c1 (centres undefined)	2%	6%	.	16%	?
Cn1c2c(c(=O)n(C)c1=O)C(c1ccc(Br)cc1)C(C#N)=C(N)N2 (centres undefined)	.	23µM*	-3%	?	21%
Cn1c2c(c(=O)n(C)c1=O)C(c1ccccc1Cl)C(C#N)=C(N)O2 (centres undefined)	4%	-12%	-3%	-17%	3%
CC(C)(C)c1cc(C(=O)CCN2CCOCC2)cc(C(C)(C)C)c1O	.	7.3µM*	10%	4.6µM*	-11%
CC(=O)Nc1ccc(-c2csc(NCc3ccccc3)n2)cc1	5%	?	-43%	-17%	.
CC(=O)Nc1ccc(-c2csc(NNC(=O)c3ccccc3)n2)cc1	0%	1.3µM*	-7%	12µM*	-6%
CCC(=O)Nc1ccc(-c2csc(NNC(C)=O)n2)cc1	3%	1%	-6%	0%	3%
CC(=O)Nc1ccc(-c2csc(N/N=C(/C)c3ccccc3)n2)cc1	.	9.2µM*	-11%	21µM*	3%
CC(=O)c1ccc(OCCNS(=O)(=O)c2ccc(-n3cnnn3)c(C)c2)cc1	-3%	?	12%	13µM*	-5%
C[C@H]1C(=O)N(C)CCN1Cc1cn(C)nc1-c1ccc(Oc2ccccc2)cc1	0%	?	10%	?	-2%
CCN(CC)C(=O)C1CCN(Cc2cn(C)nc2-c2ccc(Oc3ccccc3)cc2)CC1	3%	21µM*	-1%	?	-13%
N#Cc1c(NC(=O)CCC(=O)O)sc2c1CCCCC2	.	0%	-6%	13%	4%
CC(C)CC(=O)NC(NC(=S)Nc1sc2c(c1C#N)CCCC2)C(Cl)(Cl)Cl (centres undefined)	6%	?	-3%	16µM*	2%
CCc1ccc(CCC(=O)Nc2sc3c(c2C#N)CCCC3)o1	2%	3.5µM*	17%	5µM*	.
N#Cc1c(NC(=O)CSc2nc(N)cc(=O)[nH]2)sc2c1CCCC2	1%	23µM*	-9%	?	-5%
N#Cc1c(NC(=O)CCC(=O)O)sc2c1CCCC2	-2%	0%	-12%	0.58µM*	-3%
S=C(Nc1cccc(Cl)c1)N1CCOCC1	7%	-18%	-7%	2%	.
O=C(CSc1n[nH]c(-c2ccccc2Br)n1)NC(=O)NCc1ccco1	9%	6%	1%	0%	3%
CCSc1nnc(NC(=O)C(CC)(C(F)(F)F)C(F)(F)F)s1	2%	18µM*	?	?	-3%
CCSc1nnc(NC(=O)C(C)(C(F)(F)F)C(F)(F)F)s1	7%	18µM*	25%	23µM*	-5%
O=C(Cc1cccc2ccccc12)NCC(=O)N1CCN(Cc2cccc(C(F)(F)F)c2)CC1	0%	10µM*	.	10µM*	-6%
O=C(Cc1cccc2ccccc12)NCC(=O)N1CCN(CC(=O)Nc2ccc(F)cc2)CC1	.	18µM*	.	?	.
COCC1=C2c3ccccc3[C@H](C[N+](=O)[O-])C(C(=O)OC)(C(=O)OC)CC2C2C(=O)N(c3ccccc3)C(=O)C2C1 (some centres undefined)	5%	.	.	.	.
O=C(NCc1ccccc1F)Nc1ccc([N+](=O)[O-])cc1	0%	26µM*	2%	?	.
O=C(NCc1ccc2c(c1)OCO2)Nc1ccc([N+](=O)[O-])cc1	2%[56.1 µM]	4.1µM*	-6%	21µM*	4%
CC[C@@H]1[C@H]2CCCC(=O)N3CC[C@@H](C[C@H]1O)[C@@H]23	.	0%	.	-9%	12%
CN(CC(=O)Nc1ccccc1Cl)C(=O)COC(=O)/C=C/c1ccc(C(F)(F)F)cc1	-3%	14%	0%	-8%	5%
COc1ccc(-n2c(SCC(=O)NCc3ccccc3)nc3ccsc3c2=O)cc1	-6%	?	-5%	?	.
O=C(CSc1nc2ccsc2c(=O)n1Cc1ccccc1Cl)NCc1ccc(F)cc1	0%	21µM*	5%	16µM*	.

Whole records as entered above.
Results for O=C(CSc1nc2ccsc2c(=O)n1Cc1ccccc1Cl)NCc1ccc(F)cc1 : TDP1 inh = 0%; DT40 TDP1 no CPT = 21µM*; miR-21 reporter = 5%; TDP1 cell CPT = 16µM*; uPA generation = .
Results for O=C(NCc1ccccc1F)Nc1ccc([N+](=O)[O-])cc1 : TDP1 inh = 0%; DT40 TDP1 no CPT = 26µM*; miR-21 reporter = 2%; TDP1 cell CPT = ?; uPA generation = .

New compounds follow
SMILES	TDP1 inh	DT40 TDP1 no CPT	miR-21 reporter	TDP1 cell CPT	uPA generation
Cc1ccc(Cn2c(SCC(=O)NCc3ccccc3Cl)nc3ccsc3c2=O)cc1	3%	21µM*	0%	?	.
Cc1ccc(Cn2c(SCC(=O)C(C)(C)C)nc3ccsc3c2=O)cc1	-8%	15µM*	21%	21µM*	.
CC(C)CCNC(=O)CSc1nc2ccsc2c(=O)n1Cc1ccccc1Cl	2%	?	-1%	?	.
Cc1cc(-n2c(SCC(=O)NCc3ccccc3)nc3ccsc3c2=O)ccc1Cl	0%	?	9%	16µM*	.
Cn1nccc1C(=O)Nc1ccn(C23CC4CC(CC(C4)C2)C3)n1	3%	15µM*	-16%	21µM*	-3%
CC(C)(C)NC(=O)CSc1nccn1Cc1ccccc1	4%	-19%	-8%	-25%	11%
COc1ccc2oc(=O)c(C(=O)NC3CCCCCC3)cc2c1	.	-25%	-9%	-11%	1%
COc1ccc(NC(=O)N(C)[C@H]2C[C@H]3c4[nH]c5ccccc5c4CCN3C(=O)[C@H]2CO)cc1	.	?	.	-21%	.
COc1ccc(NC(=O)N(C)[C@H]2C[C@H]3c4[nH]c5ccc(-c6ccc(OC)cc6)cc5c4CCN3C(=O)[C@H]2[C@H](C)O)cc1	.	13µM*	.	18µM*	.
CN[C@H]1C[C@H]2c3[nH]c4ccc(-c5ccc(OC)cc5)cc4c3CCN2C(=O)[C@H]1[C@H](C)O	.	3.3µM*	.	2.6µM*	.

Arranged by formula weight (highest first): 3 of the compounds above.
SMILES	TDP1 inh	DT40 TDP1 no CPT	miR-21 reporter	TDP1 cell CPT	uPA generation
Cc1cc(-n2c(SCC(=O)NCc3ccccc3)nc3ccsc3c2=O)ccc1Cl	0%	?	9%	16µM*	.
CN[C@H]1C[C@H]2c3[nH]c4ccc(-c5ccc(OC)cc5)cc4c3CCN2C(=O)[C@H]1[C@H](C)O	.	3.3µM*	.	2.6µM*	.
CC(C)(C)NC(=O)CSc1nccn1Cc1ccccc1	4%	-19%	-8%	-25%	11%

(list continues)
SMILES	TDP1 inh	DT40 TDP1 no CPT	miR-21 reporter	TDP1 cell CPT	uPA generation
COc1ccc(NC(=O)N(C)[C@H]2C[C@H]3c4[nH]c5ccccc5c4CCN3C(=O)[C@H]2[C@H](C)O)cc1	.	?	.	-25%	.
COc1ccc(-c2ccc3[nH]c4c(c3c2)CCN2C(=O)[C@@H]([C@H](C)O)[C@@H](N(C)C(=O)Nc3ccccc3)C[C@@H]42)cc1	.	6.5µM*	.	13µM*	.
COc1ccc2nc(NC(=O)CSc3nc(C)cc(=O)[nH]3)sc2c1	-11%	?	-26%	-25%	-2%
CC(C)NC(=O)CSc1nc2sccc2c(=O)n1-c1ccccc1	1%	?	-7%	-4%	5%
COc1cccc2cc(C(C)N(CCCN3CCOCC3)C(=S)Nc3cccc(C)c3C)oc12 (centres undefined)	8%	-7%	2%	-3%	-3%
CN(Cc1cccs1)S(=O)(=O)c1cccs1	-1%	-8%	2%	-22%	.
Cc1cc(Nc2ccccc2)nc(-c2ccccc2O)n1	-5%	?	-34%	16µM*	-2%

Compound activity: PubChem, National Center for Advancing Translational Sciences (NCATS)
